Results taken from paper PMC7611940, “A Conformation Selective Mode of Inhibiting SRC Improves Drug Efficacy and Tolerability” (Cancer Research, 2021).

Chains of the proteins cited; added tags and fusions are not shown. Lines headed by an entry give the natural chain unless they say otherwise; changes in a name come on top.
UniProt P30530, whole entry: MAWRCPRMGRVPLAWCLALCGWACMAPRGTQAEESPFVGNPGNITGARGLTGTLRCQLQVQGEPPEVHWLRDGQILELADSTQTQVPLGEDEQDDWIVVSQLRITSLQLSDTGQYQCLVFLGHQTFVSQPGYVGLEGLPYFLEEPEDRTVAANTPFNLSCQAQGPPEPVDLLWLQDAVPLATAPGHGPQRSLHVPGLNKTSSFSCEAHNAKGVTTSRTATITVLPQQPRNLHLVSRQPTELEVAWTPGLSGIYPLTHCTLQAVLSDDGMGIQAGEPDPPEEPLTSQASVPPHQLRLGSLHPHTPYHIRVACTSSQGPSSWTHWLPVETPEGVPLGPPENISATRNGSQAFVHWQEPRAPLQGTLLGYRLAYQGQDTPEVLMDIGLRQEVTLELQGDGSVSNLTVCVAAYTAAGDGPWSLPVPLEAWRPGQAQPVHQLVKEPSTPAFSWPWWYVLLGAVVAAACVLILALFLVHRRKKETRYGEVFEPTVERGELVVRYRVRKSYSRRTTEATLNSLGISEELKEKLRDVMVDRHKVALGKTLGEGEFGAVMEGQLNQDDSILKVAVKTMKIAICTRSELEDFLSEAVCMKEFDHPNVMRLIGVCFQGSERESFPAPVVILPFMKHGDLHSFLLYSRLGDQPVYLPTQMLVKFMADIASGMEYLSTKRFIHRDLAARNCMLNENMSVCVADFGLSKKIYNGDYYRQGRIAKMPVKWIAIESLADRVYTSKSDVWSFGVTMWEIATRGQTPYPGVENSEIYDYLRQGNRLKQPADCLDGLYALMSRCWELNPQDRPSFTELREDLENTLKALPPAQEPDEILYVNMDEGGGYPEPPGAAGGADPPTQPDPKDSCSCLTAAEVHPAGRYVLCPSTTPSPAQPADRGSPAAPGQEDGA
UniProt P49759: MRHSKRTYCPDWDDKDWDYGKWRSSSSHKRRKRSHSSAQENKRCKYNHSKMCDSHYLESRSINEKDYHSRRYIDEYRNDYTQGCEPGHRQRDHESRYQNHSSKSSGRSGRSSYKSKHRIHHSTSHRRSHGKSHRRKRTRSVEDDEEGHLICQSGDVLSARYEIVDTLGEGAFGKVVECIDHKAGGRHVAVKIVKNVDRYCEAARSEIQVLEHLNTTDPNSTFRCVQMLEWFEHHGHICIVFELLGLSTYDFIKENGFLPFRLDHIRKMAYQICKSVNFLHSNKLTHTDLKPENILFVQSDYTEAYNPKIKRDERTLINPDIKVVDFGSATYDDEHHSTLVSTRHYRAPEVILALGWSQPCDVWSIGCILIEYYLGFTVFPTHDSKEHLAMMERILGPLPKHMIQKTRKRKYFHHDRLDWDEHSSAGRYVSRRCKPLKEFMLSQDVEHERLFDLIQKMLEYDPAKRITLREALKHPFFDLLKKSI
UniProt P21709: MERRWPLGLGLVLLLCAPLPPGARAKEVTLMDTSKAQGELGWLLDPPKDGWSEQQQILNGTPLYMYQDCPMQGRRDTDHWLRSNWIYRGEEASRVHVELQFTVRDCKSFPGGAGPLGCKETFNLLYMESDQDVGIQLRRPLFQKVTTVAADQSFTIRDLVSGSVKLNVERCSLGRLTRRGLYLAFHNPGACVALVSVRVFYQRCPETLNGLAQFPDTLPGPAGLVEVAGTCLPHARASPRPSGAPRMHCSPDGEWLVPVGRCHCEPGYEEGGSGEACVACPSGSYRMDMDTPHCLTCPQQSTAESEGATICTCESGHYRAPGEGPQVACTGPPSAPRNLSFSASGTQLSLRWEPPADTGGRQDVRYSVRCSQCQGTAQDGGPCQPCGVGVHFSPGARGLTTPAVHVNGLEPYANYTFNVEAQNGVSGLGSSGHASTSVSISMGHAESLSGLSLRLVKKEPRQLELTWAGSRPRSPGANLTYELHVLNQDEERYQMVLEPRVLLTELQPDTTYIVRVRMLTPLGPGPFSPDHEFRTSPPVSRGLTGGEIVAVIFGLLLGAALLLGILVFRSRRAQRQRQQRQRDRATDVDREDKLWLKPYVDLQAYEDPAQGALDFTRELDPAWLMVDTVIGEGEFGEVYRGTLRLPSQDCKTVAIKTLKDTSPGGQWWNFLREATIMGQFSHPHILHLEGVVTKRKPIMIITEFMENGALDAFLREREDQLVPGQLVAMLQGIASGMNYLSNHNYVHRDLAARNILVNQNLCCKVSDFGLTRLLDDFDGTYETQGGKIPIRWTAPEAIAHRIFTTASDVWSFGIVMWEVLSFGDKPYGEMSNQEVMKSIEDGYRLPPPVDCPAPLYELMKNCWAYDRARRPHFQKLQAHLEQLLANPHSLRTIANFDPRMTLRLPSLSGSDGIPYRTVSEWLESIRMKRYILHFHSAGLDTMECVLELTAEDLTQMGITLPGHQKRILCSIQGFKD
UniProt P06241, whole entry: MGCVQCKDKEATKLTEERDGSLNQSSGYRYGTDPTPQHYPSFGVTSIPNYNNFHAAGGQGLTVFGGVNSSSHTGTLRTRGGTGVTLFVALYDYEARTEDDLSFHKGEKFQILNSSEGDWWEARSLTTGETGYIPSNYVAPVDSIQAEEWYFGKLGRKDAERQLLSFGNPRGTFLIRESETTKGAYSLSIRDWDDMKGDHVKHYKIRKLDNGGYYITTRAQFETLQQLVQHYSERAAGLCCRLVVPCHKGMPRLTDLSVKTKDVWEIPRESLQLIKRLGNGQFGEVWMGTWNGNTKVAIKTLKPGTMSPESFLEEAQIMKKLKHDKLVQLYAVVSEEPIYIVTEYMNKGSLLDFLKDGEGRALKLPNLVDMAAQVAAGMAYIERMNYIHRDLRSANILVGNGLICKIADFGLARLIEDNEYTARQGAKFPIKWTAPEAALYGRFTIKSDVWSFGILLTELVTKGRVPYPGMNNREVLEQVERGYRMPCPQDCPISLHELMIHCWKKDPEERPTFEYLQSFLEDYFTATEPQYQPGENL
UniProt Q8IVH8: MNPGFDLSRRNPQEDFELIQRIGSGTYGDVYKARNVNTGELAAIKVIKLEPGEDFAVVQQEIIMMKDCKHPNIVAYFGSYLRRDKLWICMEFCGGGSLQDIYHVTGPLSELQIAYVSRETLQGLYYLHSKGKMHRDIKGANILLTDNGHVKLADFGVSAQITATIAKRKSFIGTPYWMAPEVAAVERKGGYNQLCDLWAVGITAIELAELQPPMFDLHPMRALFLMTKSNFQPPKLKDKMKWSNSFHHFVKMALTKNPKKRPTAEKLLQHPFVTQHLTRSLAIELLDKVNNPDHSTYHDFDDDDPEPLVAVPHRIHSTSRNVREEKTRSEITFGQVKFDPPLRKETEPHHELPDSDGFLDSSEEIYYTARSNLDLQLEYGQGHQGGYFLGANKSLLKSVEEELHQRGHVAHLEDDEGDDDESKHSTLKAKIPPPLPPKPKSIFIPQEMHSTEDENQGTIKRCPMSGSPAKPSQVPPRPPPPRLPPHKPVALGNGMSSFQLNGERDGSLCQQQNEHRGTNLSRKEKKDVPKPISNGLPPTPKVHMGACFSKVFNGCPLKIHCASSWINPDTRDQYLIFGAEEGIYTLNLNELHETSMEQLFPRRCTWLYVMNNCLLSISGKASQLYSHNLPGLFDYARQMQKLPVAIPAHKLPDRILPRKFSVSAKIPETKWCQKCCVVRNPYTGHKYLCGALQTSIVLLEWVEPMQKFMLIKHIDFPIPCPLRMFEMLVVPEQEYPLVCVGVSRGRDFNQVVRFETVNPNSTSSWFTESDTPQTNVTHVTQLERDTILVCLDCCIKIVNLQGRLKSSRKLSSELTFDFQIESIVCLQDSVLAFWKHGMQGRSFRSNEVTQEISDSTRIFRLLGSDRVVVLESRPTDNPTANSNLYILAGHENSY
UniProt Q9P0L2: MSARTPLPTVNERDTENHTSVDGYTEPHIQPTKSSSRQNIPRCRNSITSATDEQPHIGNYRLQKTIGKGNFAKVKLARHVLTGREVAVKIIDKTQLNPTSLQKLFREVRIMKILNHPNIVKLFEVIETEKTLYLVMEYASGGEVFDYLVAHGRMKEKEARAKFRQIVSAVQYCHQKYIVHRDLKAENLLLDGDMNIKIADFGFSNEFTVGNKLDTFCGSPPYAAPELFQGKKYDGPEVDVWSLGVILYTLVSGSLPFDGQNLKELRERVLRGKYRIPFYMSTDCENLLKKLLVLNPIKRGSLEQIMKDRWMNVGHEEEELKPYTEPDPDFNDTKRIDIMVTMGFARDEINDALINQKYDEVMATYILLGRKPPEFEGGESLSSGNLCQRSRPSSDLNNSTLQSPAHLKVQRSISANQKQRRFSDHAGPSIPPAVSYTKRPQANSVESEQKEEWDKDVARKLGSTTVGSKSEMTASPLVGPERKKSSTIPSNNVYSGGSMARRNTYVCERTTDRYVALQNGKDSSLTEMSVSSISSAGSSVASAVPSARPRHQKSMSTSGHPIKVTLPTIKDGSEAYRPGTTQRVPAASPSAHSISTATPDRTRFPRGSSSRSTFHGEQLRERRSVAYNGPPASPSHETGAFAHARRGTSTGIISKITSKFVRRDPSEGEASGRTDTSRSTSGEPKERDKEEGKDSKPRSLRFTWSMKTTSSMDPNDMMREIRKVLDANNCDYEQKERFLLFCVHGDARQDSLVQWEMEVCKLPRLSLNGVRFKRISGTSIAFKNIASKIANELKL
UniProt Q9Y2U5: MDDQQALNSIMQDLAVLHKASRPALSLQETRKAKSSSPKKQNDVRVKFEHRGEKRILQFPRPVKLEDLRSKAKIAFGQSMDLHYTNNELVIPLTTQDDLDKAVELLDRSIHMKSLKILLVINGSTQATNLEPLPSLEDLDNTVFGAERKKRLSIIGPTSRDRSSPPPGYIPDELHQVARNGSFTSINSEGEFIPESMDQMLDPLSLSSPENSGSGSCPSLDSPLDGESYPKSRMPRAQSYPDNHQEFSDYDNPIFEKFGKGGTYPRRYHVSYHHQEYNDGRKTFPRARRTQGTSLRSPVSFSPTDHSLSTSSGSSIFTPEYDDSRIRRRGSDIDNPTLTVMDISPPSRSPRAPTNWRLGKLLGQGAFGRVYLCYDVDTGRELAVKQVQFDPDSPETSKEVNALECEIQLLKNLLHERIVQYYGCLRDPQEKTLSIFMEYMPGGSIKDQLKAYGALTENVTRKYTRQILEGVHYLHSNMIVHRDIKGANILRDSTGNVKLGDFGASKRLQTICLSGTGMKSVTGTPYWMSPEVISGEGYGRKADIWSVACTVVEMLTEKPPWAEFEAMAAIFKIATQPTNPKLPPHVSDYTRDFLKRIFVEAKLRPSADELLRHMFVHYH
UniProt Q9BUB5: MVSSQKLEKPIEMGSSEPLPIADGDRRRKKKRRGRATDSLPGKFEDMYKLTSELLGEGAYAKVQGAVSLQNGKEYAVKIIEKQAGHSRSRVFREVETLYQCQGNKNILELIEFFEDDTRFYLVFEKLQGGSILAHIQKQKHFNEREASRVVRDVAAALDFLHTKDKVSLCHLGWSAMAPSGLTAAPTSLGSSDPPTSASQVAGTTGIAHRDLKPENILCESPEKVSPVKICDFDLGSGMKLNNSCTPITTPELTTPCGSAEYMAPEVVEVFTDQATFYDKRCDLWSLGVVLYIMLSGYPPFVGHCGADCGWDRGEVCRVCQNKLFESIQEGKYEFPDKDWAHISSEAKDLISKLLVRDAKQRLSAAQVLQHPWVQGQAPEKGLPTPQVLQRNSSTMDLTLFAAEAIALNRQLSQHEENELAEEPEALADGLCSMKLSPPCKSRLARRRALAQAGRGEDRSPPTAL
UniProt Q86UE8, whole entry: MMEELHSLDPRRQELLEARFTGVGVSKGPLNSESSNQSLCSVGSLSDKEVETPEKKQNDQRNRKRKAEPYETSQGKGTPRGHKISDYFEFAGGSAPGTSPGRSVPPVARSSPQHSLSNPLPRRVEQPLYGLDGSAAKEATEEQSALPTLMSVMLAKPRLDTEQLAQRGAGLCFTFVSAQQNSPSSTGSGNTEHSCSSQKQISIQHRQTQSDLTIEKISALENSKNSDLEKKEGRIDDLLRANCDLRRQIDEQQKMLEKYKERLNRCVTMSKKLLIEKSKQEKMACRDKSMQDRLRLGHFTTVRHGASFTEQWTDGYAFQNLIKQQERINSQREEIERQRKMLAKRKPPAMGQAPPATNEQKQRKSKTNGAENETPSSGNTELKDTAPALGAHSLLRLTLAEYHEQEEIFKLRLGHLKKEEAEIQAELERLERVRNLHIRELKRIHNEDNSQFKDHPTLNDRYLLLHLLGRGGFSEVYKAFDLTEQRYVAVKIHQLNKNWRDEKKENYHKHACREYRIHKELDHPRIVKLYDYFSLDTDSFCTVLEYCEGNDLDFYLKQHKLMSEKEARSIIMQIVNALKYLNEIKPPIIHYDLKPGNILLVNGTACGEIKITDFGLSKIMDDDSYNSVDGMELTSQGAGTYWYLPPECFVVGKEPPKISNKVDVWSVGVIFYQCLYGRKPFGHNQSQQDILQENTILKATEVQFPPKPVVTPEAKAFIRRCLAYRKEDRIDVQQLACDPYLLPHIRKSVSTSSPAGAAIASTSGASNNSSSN

What was measured:
Assay in all cases: biochemical
Settings in all cases: read-out: % remaining activity
ACVR1 = ACVR1 (Homo sapiens, UniProt Q04771)
ACVR1B = ACVR1B (Homo sapiens, UniProt P36896)
ALK1 = target: T1, ALK1 (Homo sapiens, UniProt P37023)
T1 construct: gene ACVRL1

AURKB = AURKB (Homo sapiens, UniProt Q96GD4)
AURKC = AURKC (Homo sapiens, UniProt Q9UQB9)
AXL = AXL (Homo sapiens, UniProt P30530)
BRSK1 = BRSK1 (Homo sapiens, UniProt Q8TDC3)
CK2a = target: T2, CK2a (Homo sapiens, UniProt P68400)
T2 construct: gene CSNK2A1

CLK1 = CLK1 (Homo sapiens, UniProt P49759)
DMPK = DMPK (Homo sapiens, UniProt Q09013)
EPHA1 = EPHA1 (Homo sapiens, UniProt P21709)
EPHA8 = EPHA8 (Homo sapiens, UniProt P29322)
EPHB2 = EPHB2 (Homo sapiens, UniProt P29323)
FYN = FYN (Homo sapiens, UniProt P06241)
GSK3b = GSK3b (Homo sapiens, UniProt P49841)
HIPK3 = HIPK3 (Homo sapiens, UniProt Q9H422)
IR = target: T3, IR (Homo sapiens, UniProt P06213)
T3 construct: gene INSR

MAP2K4 = MAP2K4 (Homo sapiens, UniProt P45985)
MAP4K3 = MAP4K3 (Homo sapiens, UniProt Q8IVH8)
MAPKAPK2 = MAPKAPK2 (Homo sapiens, UniProt P49137)
MARK1 = MARK1 (Homo sapiens, UniProt Q9P0L2)
MEKK2 = target: T4, MEKK2 (Homo sapiens, UniProt Q9Y2U5)
T4 construct: gene MAP3K2

MLK1 = target: T5, MLK1 (Homo sapiens, UniProt P80192)
T5 construct: gene MAP3K9

MLK2 = target: T6, MLK2 (Homo sapiens, UniProt Q02779)
T6 construct: gene MAP3K10

MNK1 = target: T7, MNK1 (Homo sapiens, UniProt Q9BUB5)
T7 construct: gene MKNK1

MUSK = MUSK (Homo sapiens, UniProt O15146)
P38-delta = target: T8, P38-delta (Homo sapiens, UniProt O15264)
T8 construct: gene MAPK13

PDGFRa = PDGFRa (Homo sapiens, UniProt P16234)
PDPK1 = PDPK1 (Homo sapiens, UniProt O15530)
PKCd = target: T9, PKCd (Homo sapiens, UniProt Q05655)
T9 construct: gene PRKCD

PKCepsilon = target: T10, PKCepsilon (Homo sapiens, UniProt Q02156)
T10 construct: gene PRKCE

PKN3 = PKN3 (Homo sapiens, UniProt Q6P5Z2)
RIPK3 = RIPK3 (Homo sapiens, UniProt Q9Y572)
SSTK = target: T11, SSTK (Homo sapiens, UniProt Q9BXA6)
T11 construct: gene TSSK6

TLK2 = TLK2 (Homo sapiens, UniProt Q86UE8)
WEE1 = WEE1 (Homo sapiens, UniProt P30291)

## COc1cc(-c2nn(CCN3CCC(N(C)C)CC3)c3ncnc(N)c23)ccc1NC(=O)OC(C)(C)C [eCF506]
ACVR1
  remaining activity at 1 µM: 106%
ACVR1B
  remaining activity at 1 µM: 90.9%
ALK1
  remaining activity at 1 µM: 85.9%
AURKB
  remaining activity at 1 µM: 99.1%
AURKC
  remaining activity at 1 µM: 102%
AXL
  remaining activity at 1 µM: 64.1%
BRSK1
  remaining activity at 1 µM: 115%
CK2a
  remaining activity at 1 µM: 92.8%
CLK1
  remaining activity at 1 µM: 100%
DMPK
  remaining activity at 1 µM: 105%
EPHA1
  remaining activity at 1 µM: 86.7%
EPHA8
  remaining activity at 1 µM: 95.6%
EPHB2
  remaining activity at 1 µM: 66.6%
FYN
  remaining activity at 1 µM: 2.3%
GSK3b
  remaining activity at 1 µM: 94.6%
HIPK3
  remaining activity at 1 µM: 95.2%
IR
  remaining activity at 1 µM: 112%
MAP2K4
  remaining activity at 1 µM: 107%
MAP4K3
  remaining activity at 1 µM: 87%
MAPKAPK2
  remaining activity at 1 µM: 97%
MARK1
  remaining activity at 1 µM: 100%
MEKK2
  remaining activity at 1 µM: 99.3%
MLK1
  remaining activity at 1 µM: 95.5%
MLK2
  remaining activity at 1 µM: 97.3%
MNK1
  remaining activity at 1 µM: 97.8%
MUSK
  remaining activity at 1 µM: 89%
P38-delta
  remaining activity at 1 µM: 106%
PDGFRa
  remaining activity at 1 µM: 115%
PDPK1
  remaining activity at 1 µM: 97.5%
PKCd
  remaining activity at 1 µM: 97.8%
PKCepsilon
  remaining activity at 1 µM: 99.9%
PKN3
  remaining activity at 1 µM: 98.5%
RIPK3
  remaining activity at 1 µM: 12.1%
SSTK
  remaining activity at 1 µM: 103%
TLK2
  remaining activity at 1 µM: 100%
WEE1
  remaining activity at 1 µM: 96.2%
